Values of other authors as cited in patent US8278437B2, “Hydroxypropyl-sulfobutyl-beta-cyclodextrin, the preparation method, the analytical method, and the pharmacutical application thereof” (priority 2005, dated 2012).

System: rat
Details: Oral; cited from earlier work

With O=C(OCc1ccccc1)c1ccccc1 [Benzyl benzoate] as the compound, how does the LD50 read?
Its LD50 is 1700 mg/kg.
